This is an account of results in ChEMBL document CHEMBL2074205, “Inhibitory potencies of 1,4-dihydropyridine calcium antagonists to P-glycoprotein-mediated transport: comparison with the effects on CYP3A4” (Pharm Res, 2000).

Protein sequences, listed by entry. Tags and fused reporters are not part of them.
UniProt P08183, whole entry: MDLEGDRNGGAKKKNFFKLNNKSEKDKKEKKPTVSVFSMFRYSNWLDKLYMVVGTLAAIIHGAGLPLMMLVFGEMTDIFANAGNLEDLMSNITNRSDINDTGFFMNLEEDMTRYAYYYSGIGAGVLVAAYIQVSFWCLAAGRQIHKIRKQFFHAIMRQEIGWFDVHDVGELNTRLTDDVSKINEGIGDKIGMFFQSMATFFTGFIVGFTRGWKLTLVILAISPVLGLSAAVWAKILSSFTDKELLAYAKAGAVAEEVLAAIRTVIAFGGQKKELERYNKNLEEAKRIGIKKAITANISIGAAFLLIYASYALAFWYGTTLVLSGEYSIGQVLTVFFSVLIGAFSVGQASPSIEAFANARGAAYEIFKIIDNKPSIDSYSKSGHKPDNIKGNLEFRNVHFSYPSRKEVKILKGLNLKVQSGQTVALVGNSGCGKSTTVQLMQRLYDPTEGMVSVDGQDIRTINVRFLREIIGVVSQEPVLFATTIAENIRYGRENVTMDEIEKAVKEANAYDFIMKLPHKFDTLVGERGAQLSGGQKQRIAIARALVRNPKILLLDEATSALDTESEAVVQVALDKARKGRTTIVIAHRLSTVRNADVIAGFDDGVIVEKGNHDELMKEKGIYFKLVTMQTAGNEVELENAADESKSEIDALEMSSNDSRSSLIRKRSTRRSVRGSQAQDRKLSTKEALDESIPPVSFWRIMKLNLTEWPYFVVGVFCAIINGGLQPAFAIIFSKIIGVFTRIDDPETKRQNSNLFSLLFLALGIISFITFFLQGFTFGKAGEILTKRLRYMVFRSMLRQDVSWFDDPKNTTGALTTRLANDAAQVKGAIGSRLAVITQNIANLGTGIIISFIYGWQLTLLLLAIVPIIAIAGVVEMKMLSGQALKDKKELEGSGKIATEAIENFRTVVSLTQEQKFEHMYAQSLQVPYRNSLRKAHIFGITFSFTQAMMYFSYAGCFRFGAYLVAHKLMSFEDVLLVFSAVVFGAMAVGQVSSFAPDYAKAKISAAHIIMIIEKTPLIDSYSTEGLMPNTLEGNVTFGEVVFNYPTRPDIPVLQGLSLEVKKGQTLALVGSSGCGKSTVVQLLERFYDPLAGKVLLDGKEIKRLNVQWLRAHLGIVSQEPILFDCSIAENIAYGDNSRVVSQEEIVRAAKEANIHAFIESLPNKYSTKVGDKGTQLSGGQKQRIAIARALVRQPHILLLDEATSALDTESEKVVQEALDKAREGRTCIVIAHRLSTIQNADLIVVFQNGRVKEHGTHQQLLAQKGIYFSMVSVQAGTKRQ

This assay addresses ATP-dependent translocase ABCB1 (Homo sapiens, UniProt P08183). Briefly: TP_TRANSPORTER: inhibition of Daunorubicin transepithelial transport (basal to apical) (Daunorubicin: 0.035 uM) in MDR1-expressing LLC-PK1 cells. Format: functional, cell-based.

`COC(=O)C1=C(C)NC(C)=C(C(=O)OCCN(C)Cc2ccccc2)C1c1cccc([N+](=O)[O-])c1` (stereo unspecified) [NICARDIPINE]: the IC50 (usually the concentration that gives 50% inhibition) is 17.5 µM. This counts as double-digit micromolar.
